Values of other authors as cited in patent US8536118B2, “Methods and compositions for modulating hyperstabilized c-met” (Genentech, Inc., priority 2005, dated 2013).

Tested on: B-cell non-Hodgkin's Lymphoma (NHL)
Conditions: cited from earlier work

B1: ibritumomab tiuxetan (conjugate, chains of the INN, looked up)
heavy: QAYLQQSGAELVRPGASVKMSCKASGYTFTSYNMHWVKQTPRQGLEWIGAIYPGNGDTSYNQKFKGKATLTVDKSSSTAYMQLSSLTSEDSAVYFCARVVYYSNSYWYFDVWGTGTTVTVSAPSVYPLAPVCGDTTGSSVTLGCLVKGYFPEPVTLTWNSGSLSSGVHTFPAVLQSDLYTLSSSVTVTSSTWPSQSITCNVAHPASSTKVDKKIEPRGPTIKPCPPCKCPAPNLLGGPSVFIFPPKIKDVLMISLSPIVTCVVVDVSEDDPDVQISWFVNNVEVHTAQTQTHREDYNSTLRVVSALPIQHQDWMSGKEFKCKVNNKDLPAPIERTISKPKGSVRAPQVYVLPPPEEEMTKKQVTLTCMVTDFMPEDIYVEWTNNGKTELNYKNTEPVLDSDGSYFMYSKLRVEKKNWVERNSYSCSVVHEGLHNHHTTKSFSR
light: QIVLSQSPAILSASPGEKVTMTCRASSSVSYMHWYQQKPGSSPKPWIYAPSNLASGVPARFSGSGSGTSYSLTISRVEAEDAATYYCQQWSFNPPTFGAGTKLELKRADAAPTVFIFPPSDEQLKSGTASVVCLLNNFYPREAKVQWKVDNALQSGNSQESVTEQDSKDSTYSLSSTLTLSKADYEKHKVYACEVTHQGLSSPVTKSFN
modifications: tiuxetan chelator
- clinical activity (B-cell non-Hodgkin's Lymphoma): has activity against B-cell non-Hodgkin's Lymphoma (NHL)
- adverse effect of administration (human, in vivo): severe and prolonged cytopenias in most patients
